# Literature values, collected in patent US6693073B2, “Pulmonary delivery of active agents” (Emisphere Technologies, Inc., priority 1998, dated 2004).
# Settings: intravenous administration of 0.1 u/kg to rabbits; previously reported; cited from earlier work
substance,measurement,value
bovine insulin,t ½,30 min
